According to ChEMBL document CHEMBL1136616, “Carbonic anhydrase inhibitors: SAR and X-ray crystallographic study for the interaction of sugar sulfamates/sulfamides with isozymes I, II and IV” (Bioorg Med Chem Lett, 2003):

Molecular target: Carbonic anhydrase 2 (Homo sapiens, UniProt P00918)

## NS(=O)(=O)O [SULFAMATE]
  Ki: 97 µM
